Among the data in ChEMBL document CHEMBL2321806, “Optimization of peptide hydroxamate inhibitors of insulin-degrading enzyme reveals marked substrate-selectivity” (J Med Chem, 2013) are Ratio Ki(app) values, retold here.

The chains behind the UniProt entries cited, without tags or fusion partners.
UniProt P14735, whole entry: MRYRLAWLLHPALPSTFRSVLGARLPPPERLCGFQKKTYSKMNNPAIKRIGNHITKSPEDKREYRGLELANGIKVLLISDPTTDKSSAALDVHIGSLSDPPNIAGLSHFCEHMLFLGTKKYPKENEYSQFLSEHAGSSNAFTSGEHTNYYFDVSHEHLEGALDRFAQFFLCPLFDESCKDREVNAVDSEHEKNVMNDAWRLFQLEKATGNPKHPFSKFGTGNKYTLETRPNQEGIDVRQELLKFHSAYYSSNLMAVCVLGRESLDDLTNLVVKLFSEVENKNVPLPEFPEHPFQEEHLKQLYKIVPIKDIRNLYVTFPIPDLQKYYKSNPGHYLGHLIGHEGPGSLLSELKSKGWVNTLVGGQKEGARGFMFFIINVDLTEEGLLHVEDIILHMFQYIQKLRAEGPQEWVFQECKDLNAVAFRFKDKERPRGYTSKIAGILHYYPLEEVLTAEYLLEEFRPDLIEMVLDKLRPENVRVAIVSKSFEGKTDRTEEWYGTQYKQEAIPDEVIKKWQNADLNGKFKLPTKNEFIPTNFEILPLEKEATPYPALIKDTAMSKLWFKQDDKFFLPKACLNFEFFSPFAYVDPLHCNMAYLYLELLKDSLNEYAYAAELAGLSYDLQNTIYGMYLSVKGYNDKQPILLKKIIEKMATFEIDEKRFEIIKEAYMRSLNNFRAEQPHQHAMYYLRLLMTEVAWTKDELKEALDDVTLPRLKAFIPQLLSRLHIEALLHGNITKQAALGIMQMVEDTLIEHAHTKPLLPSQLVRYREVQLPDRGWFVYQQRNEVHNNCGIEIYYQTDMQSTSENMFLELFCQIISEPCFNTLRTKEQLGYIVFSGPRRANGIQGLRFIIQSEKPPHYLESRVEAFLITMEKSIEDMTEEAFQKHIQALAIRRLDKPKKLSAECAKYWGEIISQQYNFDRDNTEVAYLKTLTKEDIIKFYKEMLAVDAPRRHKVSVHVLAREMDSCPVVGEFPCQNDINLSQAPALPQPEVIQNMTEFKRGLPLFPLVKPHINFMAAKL

The experiment deals with Insulin-degrading enzyme (Homo sapiens, UniProt P14735). The experiment can be described thus: Selectivity ratio of apparent Ki for human recombinant IDE-mediated fluorescein-Abeta-(1-40)-Lys-biotin degradation to apparent Ki for human recombinant IDE-mediated FRET1 degradation.

Regarding `N=C(N)NCCC[C@H](NC(=O)[C@@H](CC(=O)NO)Cc1ccc2ccccc2c1)C(=O)N[C@@H](Cc1c[nH]c2ccccc12)C(=O)N[C@@H](CCC(=O)O)C(N)=O`, the Ratio Ki(app) was 10.
